Sequences of proteins named here, by UniProt entry; tags and fusion partners are left off.
UniProt P19634, whole entry: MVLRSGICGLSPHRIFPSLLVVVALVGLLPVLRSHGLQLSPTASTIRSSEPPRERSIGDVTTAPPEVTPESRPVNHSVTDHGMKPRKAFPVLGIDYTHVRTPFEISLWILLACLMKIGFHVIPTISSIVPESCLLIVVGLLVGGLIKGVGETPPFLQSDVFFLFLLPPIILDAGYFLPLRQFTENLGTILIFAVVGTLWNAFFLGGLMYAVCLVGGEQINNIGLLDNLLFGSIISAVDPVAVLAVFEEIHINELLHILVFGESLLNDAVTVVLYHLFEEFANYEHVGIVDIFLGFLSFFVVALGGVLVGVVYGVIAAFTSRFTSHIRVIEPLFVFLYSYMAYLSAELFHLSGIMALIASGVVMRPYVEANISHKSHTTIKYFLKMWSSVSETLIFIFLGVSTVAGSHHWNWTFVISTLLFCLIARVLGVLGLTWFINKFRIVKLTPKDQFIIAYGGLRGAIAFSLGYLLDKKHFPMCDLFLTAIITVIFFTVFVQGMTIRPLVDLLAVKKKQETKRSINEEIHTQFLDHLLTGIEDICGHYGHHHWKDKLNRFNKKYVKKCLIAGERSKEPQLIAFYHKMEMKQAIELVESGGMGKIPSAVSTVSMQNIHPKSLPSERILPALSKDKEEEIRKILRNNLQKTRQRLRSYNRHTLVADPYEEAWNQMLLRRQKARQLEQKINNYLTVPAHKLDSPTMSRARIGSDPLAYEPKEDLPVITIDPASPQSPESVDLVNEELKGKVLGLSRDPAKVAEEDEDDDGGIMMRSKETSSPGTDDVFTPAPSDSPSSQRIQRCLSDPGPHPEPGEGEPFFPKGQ

According to publication PMC8000185 (International Journal of Molecular Sciences, 2021):

Target: T1, NHE1 (Homo sapiens, UniProt P19634)
T1 construct: MDA-MB-231 cells were seeded into Greiner CELLSTAR black 96-well plates; endogenous in cells; host or cells: MDA-MB-231
Experiment: Plate-based NHE1 inhibition assay (BCECF pHi recovery, 96-well plate reader)
Format: cell-based

`N=C(N)NC(=O)c1nc(-c2cc3ccccc3o2)c(N)nc1N` [compound 4] showed an inhibition at 1 µM (MDA-MB-231, read-out: NHE1 Inhibition (%) 1 μM) of 13% and an inhibition at 10 µM (MDA-MB-231, read-out: NHE1 Inhibition (%) 10 μM) of 96%.
